Protein sequences, listed by entry. Tags and fused reporters are not part of them. Lines headed by an entry give the natural chain unless they say otherwise; changes in a name come on top.
UniProt P28523: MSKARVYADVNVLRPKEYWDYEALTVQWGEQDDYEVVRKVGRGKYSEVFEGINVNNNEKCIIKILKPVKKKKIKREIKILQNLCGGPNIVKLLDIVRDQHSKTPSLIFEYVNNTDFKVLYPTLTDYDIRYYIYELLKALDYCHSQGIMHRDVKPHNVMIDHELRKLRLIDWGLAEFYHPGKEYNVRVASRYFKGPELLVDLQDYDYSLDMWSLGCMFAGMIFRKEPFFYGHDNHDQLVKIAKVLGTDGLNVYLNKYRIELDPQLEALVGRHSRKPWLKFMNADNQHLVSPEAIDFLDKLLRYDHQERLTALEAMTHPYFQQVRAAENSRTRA

In ChEMBL document CHEMBL1143858, “Structure-based design and synthesis of novel macrocyclic pyrazolo[1,5-a] [1,3,5]triazine compounds as potent inhibitors of protein kinase CK2 and their anticancer activities” (Bioorg Med Chem Lett, 2008):

Target: Casein kinase II subunit alpha (Zea mays, UniProt P28523)
Assay: Inhibition of corn CK2

In the case of `O=C1CCCCc2cnn3c(NC4CC4)nc(nc23)Nc2cccc(c2)N1`, the Ki is reported as 0.024 µM.
